Patent US20020035061A1, “COMPOSITIONS AND METHODS FOR TREATING INFECTIONS USING CATIONIC PEPTIDES ALONE OR IN COMBINATION WITH ANTIBIOTICS” (priority 1996, published 2002)
Values after ≈ are worked out from the molar mass of the structure shown. Read-outs that look alike come from different tables or passages of the source.

What was measured:
[1] = test system: microorganisms with acquired resistance
[2] = test system: microorganisms with acquired resistance; assay: microbe, parasite or virus in culture
[3] = test system: MSSA (Smith, ATCC # 19640); assay: In vivo efficacy, MSSA infection; design: species or system S. aureus; conditions: 18 mg/kg ip, formulation D, 60 min post-infection; end of eight day observation
bacterial isolates [4] = test system: bacterial isolates
[5] = test system: inherently resistant microorganisms; conditions: P. aeruginosa; peptide MBI 26
bacterial isolates [6] = assay: microbe, parasite or virus in culture
[7] = test system: inherently resistant microorganisms; assay: microbe, parasite or virus in culture
[8] = Acinetobacter baumannii, read-out: Ceftriaxone MIC Alone, A. baumannii ABI002
[9] = Acinetobacter baumannii, read-out: Ceftriaxone MIC Alone, A. baumannii ABI005
[10] = Acinetobacter baumannii, read-out: Ceftriaxone MIC Alone, A. baumannii ABI006
[11] = Burkholderia cepacia, read-out: Ceftriaxone MIC Alone, B. cepacia BC003
[12] = Enterobacter cloacae, read-out: Ceftriaxone MIC Alone, E. cloacae ECL014
[13] = Enterobacter cloacae, read-out: Ceftriaxone MIC Alone, E. cloacae ECL015

C[C@@H](O)[C@H]1C(=O)N2C(C(=O)O)=C(SCCN=CN)C[C@H]12 [Imipenem]
MIC comb. (antibiotic agent) ([1]; S. maltophilia, with MBI 29): 4 µg/mL (≈ 13.4 µM) | MIC ([2]; Stenotrophomonas maltophilia, read-out: MIC alone (antibiotic agent), S. maltophilia): > 256 µg/mL

ILKKWPWWPWRRK [MBI 11CN]
% Survival [3]: 10%

ILKKWVWWPWRRK [MBI 11F3CN]
Peptide MIC + Piperacillin (bacterial isolates [4]; S. aureus 19 MRSA): 1 µg/mL

ILRWPWWPWRRK [MBI 11B7CN]
Peptide MIC + Ceftriaxone (bacterial isolates [4]; A. baumannii ABI006): 4 µg/mL | Peptide MIC + Ceftriaxone (bacterial isolates [4]; B. cepacia BC003): 4 µg/mL

CCC[C@@H]1C[C@@H](C(=O)N[C@@H]([C@H]2O[C@H](SC)[C@H](O)[C@@H](O)[C@H]2O)[C@H](C)Cl)N(C)C1 [Clindamycin]
MIC comb. (antibiotic agent) ([1]; S. epidermidis, with MBI 26): 0.125 µg/mL (≈ 0.294 µM) | MIC comb. (antibiotic agent) ([1]; S. haemolyticus, with MBI 26): 0.125 µg/mL (≈ 0.294 µM) | MIC ([2]; Staphylococcus epidermidis, read-out: MIC alone (antibiotic agent), S. epidermidis): 32 µg/mL (≈ 75.3 µM) | MIC ([2]; Staphylococcus haemolyticus, read-out: MIC alone (antibiotic agent), S. haemolyticus): 16 µg/mL (≈ 37.6 µM)

ILRWVWWVWRRK [MBI 11F4CN]
Peptide MIC + Piperacillin (bacterial isolates [4]; P. aeruginosa 23): 4 µg/mL

CO/N=C(\C(=O)N[C@@H]1C(=O)N2C(C(=O)O)=C(CSc3nc(=O)c(=O)[nH]n3C)CS[C@H]12)c1csc(N)n1 [Ceftriaxone]
Ceftriaxone MIC Alone (bacterial isolates [4]; B. cepacia BC003): 16 µg/mL | Ceftriaxone MIC Alone (bacterial isolates [4]; P. aeruginosa PA008): 64 µg/mL | Ceftriaxone MIC + Peptide [5]: 4 µg/mL | MIC (bacterial isolates [6]; [8]): 64 µg/mL (≈ 115 µM) | MIC (bacterial isolates [6]; [9]): 16 µg/mL (≈ 28.9 µM) | MIC (bacterial isolates [6]; [10]): 128 µg/mL (≈ 231 µM) | MIC (bacterial isolates [6]; [11]): 32 µg/mL (≈ 57.7 µM) | MIC (bacterial isolates [6]; [12]): 128 µg/mL (≈ 231 µM) | MIC (bacterial isolates [6]; [13]): 64 µg/mL (≈ 115 µM) | MIC (bacterial isolates [6]; Pseudomonas aeruginosa, read-out: Ceftriaxone MIC Alone, P. aeruginosa PA008): 128 µg/mL (≈ 231 µM) | MIC (bacterial isolates [6]; Pseudomonas aeruginosa, read-out: Ceftriaxone MIC Alone, P. aeruginosa PA039): 64 µg/mL (≈ 115 µM) | MIC (bacterial isolates [6]; Staphylococcus aureus, MRSA, read-out: Ceftriaxone MIC Alone, S. aureus SA025 MRSA): 8 µg/mL (≈ 14.4 µM) | MIC (bacterial isolates [6]; Staphylococcus epidermidis, read-out: Ceftriaxone MIC Alone, S. epidermidis SE007): 8 µg/mL (≈ 14.4 µM) | MIC (bacterial isolates [6]; Staphylococcus epidermidis, read-out: Ceftriaxone MIC Alone, S. epidermidis SE012): 64 µg/mL (≈ 115 µM) | MIC (bacterial isolates [6]; Staphylococcus epidermidis, read-out: Ceftriaxone MIC Alone, S. epidermidis SE073): 128 µg/mL (≈ 231 µM) | MIC (bacterial isolates [6]; Stenotrophomonas maltophilia, read-out: Ceftriaxone MIC Alone, S. maltophilia SMA019): > 128 µg/mL | MIC (bacterial isolates [6]; Stenotrophomonas maltophilia, read-out: Ceftriaxone MIC Alone, S. maltophilia SMA020): > 128 µg/mL | MIC (bacterial isolates [6]; Stenotrophomonas maltophilia, read-out: Ceftriaxone MIC Alone, S. maltophilia SMA021): > 128 µg/mL | MIC (bacterial isolates [6]; Stenotrophomonas maltophilia, read-out: Ceftriaxone MIC Alone, S. maltophilia SMA023): 128 µg/mL (≈ 231 µM) | MIC ([7]; Pseudomonas aeruginosa, read-out: Ceftriaxone MIC + Peptide, P. aeruginosa, peptide MBI 11B7CN): 0.125 µg/mL | MIC ([7]; Pseudomonas aeruginosa, read-out: Ceftriaxone MIC + Peptide, P. aeruginosa, peptide MBI 26): 8 µg/mL | MIC ([7]; Stenotrophomonas maltophilia, read-out: Ceftriaxone MIC + Peptide, S. maltophilia, peptide MBI 26): 1 µg/mL | MIC ([7]; Stenotrophomonas maltophilia, read-out: Ceftriaxone MIC Alone, S. maltophilia): > 128 µg/mL | MIC [2, 8]: 32 µg/mL (≈ 57.7 µM) | MIC [2, 9]: 16 µg/mL (≈ 28.9 µM) | MIC [2, 10]: 128 µg/mL (≈ 231 µM) | MIC ([2]; Acinetobacter lwoffii, read-out: Ceftriaxone MIC Alone, A. lwoffii ALW007): 16 µg/mL (≈ 28.9 µM) | MIC [2, 11]: 16 µg/mL (≈ 28.9 µM) | MIC [2, 12]: 128 µg/mL (≈ 231 µM) | MIC [2, 13]: 64 µg/mL (≈ 115 µM)
